The source of these data is US8207199B2, “Azole compound” (dated 2012).

The chains behind the UniProt entries cited, without tags or fusion partners.
UniProt O00519, whole entry, looked up: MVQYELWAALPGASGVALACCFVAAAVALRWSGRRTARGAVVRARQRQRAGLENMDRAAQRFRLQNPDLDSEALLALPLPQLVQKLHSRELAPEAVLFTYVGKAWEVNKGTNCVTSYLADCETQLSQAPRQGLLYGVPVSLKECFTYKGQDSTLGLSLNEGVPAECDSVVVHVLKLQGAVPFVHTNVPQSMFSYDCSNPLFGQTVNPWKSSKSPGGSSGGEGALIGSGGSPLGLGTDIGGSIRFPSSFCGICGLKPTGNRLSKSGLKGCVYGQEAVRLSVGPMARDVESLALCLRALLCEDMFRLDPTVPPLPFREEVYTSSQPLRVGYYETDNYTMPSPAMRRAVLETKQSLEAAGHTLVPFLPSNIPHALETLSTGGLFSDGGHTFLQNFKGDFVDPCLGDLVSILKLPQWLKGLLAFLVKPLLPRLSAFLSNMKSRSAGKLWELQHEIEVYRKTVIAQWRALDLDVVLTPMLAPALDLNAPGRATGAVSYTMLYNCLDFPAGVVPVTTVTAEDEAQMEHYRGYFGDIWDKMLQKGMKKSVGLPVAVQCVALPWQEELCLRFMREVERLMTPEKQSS

In assay [1] the test system is L5/L6 spinal nerve-ligated rat. Nature of the assay: Antiallodynia effect in L5/L6 spinal nerve-ligated rat (neuropathic pain model), von Frey hair test (Test Example 3). The note with it: 3 mg/kg orally, 60 minutes before response threshold measurement; operated paw 0%, non-operated paw 100% in solvent group.
Another assay has as its target FAAH (Homo sapiens, UniProt O00519). Put plainly: FAAH activity inhibition in human bladder epithelial cancer-derived cell line 5637 cells (Test Example 1). Particulars: radiolabeled anandamide substrate, 37° C. 30 minutes, URB597 10 μM = 0%, DMSO = 100%.

The structures appear in SMILES notation. pIC50: −log10 of the molar value.

Usually pIC50 stands for the negative decadic logarithm of the IC50, by convention in mol/L. For the compound `O=C(Oc1cccnc1)N1CCC(c2nnc(-c3ccc(F)c(F)c3)o2)CC1`, the “Recovery rate (%)” value in assay [1] is recorded as 74%. Besides, the pIC50 at FAAH is 9.37.

As to `Cc1ncccc1OC(=O)N1CCC(c2ncc(-c3ccc(F)cc3)o2)CC1`, the “Recovery rate (%)” value in assay [1] is given as 86%. Also, at FAAH, the pIC50 was 9.01.

On to `O=C(Oc1cccnc1)N1CCC(n2ncc(-c3ccc(F)cc3)n2)CC1`, for which, on FAAH, the pIC50 was 10.33.

On to `Cc1ccc(OC(=O)N2CCC(c3noc(-c4ccc(F)c(F)c4)n3)CC2)c(C)n1`, for which the “Recovery rate (%)” value in assay [1] is on record as 117%. The pIC50 against FAAH was 8.59.

Consider `Cc1ncccc1OC(=O)N1CCC(c2nc(-c3ccccc3F)n[nH]2)CC1`, for which, in assay [1], the “Recovery rate (%)” value is 119%. This compound showed a pIC50 against FAAH of 9.42.

With `Cc1ccc(OC(=O)N2CCC(c3ncc(-c4ccc(F)cc4)o3)CC2)cn1`, in assay [1], the “Recovery rate (%)” value came out at 97%. For the same compound, on FAAH, the pIC50 is 9.25.

With `Cc1ccc(OC(=O)N2CCC(n3cnc(-c4ccc(F)cc4)n3)CC2)cn1`, on FAAH, the negative-log IC50 (pIC50) was 10.17.

Consider `O=C(Oc1cccnc1)N1CCC(c2nc(-c3ccc(F)cc3)no2)CC1`, for which the “Recovery rate (%)” value in assay [1] is listed as 81%. Moreover, the pIC50 on FAAH was 10.11.

As to `Cc1ccc(OC(=O)N2CCC(c3nc(-c4ccc(F)cc4)co3)CC2)cn1`, the “Recovery rate (%)” value in assay [1] is given as 83%.

For `Cc1ccc(OC(=O)N2CCC(n3ccc(-c4ccccc4)n3)CC2)cn1`, the “Recovery rate (%)” value in assay [1] came out at 90%. Also, at FAAH, the pIC50 was 9.96.

In the case of `O=C(Oc1cccnc1)N1CCC(n2nnc(-c3ccccc3)n2)CC1`, the pIC50 against FAAH is 8.66.

At FAAH, `Cc1ccc(OC(=O)N2CCC(c3nc(-c4ccc(Cl)cc4)co3)CC2)cn1` gave a pIC50 of 9.80.

Turning to `Cc1ncccc1OC(=O)N1CCC(c2ncc(-c3cccc(F)c3)o2)CC1.Cl`, the “Recovery rate (%)” value in assay [1] amounted to 94%.

`O=C(Oc1cccnc1)N1CCC(n2cc(-c3cccc(Cl)c3)nn2)CC1` gave a pIC50 against FAAH of 9.15.

As for `O=C(Oc1cccnc1)N1CCC(c2nc(-c3ccccc3)c[nH]2)CC1`, on FAAH, the pIC50 is 9.07.

The compound `O=C(Oc1cccnc1)N1CCC(c2nc(-c3ccccc3)cs2)CC1` had a negative-log IC50 (pIC50) against FAAH of 9.52.

Consider `Cc1ccc(OC(=O)N2CCC(c3nc(-c4ccc(F)cc4)n[nH]3)CC2)cn1`, for which the “Recovery rate (%)” value in assay [1] amounted to 98%. The same compound gave a pIC50 against FAAH of 8.74.

Compound `Cc1ccc(OC(=O)N2CCC(n3cnc(-c4ccccc4)c3)CC2)cn1` showed a pIC50 against FAAH of 8.85.

Regarding `O=C(Oc1cccnc1)N1CCC(c2nc(-c3ccccc3)n[nH]2)CC1`, the “Recovery rate (%)” value in assay [1] stood at 97%. In addition, at FAAH, the pIC50 is 9.46.

Regarding `O=C(Oc1cccnc1)N1CCC(c2cc(-c3ccccc3)n[nH]2)CC1`, the “Recovery rate (%)” value in assay [1] was 71%. For the same compound, the pIC50 against FAAH was 9.96.

For the compound `O=C(Oc1cccnc1)N1CCC(n2cc(-c3ccc(F)cc3)cn2)CC1`, the pIC50 at FAAH is 9.82.

For the compound `O=C(Oc1cccnc1)N1CCC(c2nnc(-c3ccc(C(F)(F)F)cc3)o2)CC1`, the pIC50 at FAAH was 9.70.
